Literature values, collected in article PMC12609579, “Acute Myeloid Leukemia: A Key Role of DGKα and DGKζ in Cell Viability” (Cells, 2025).

Target: dopamine D2 receptor
Conditions: read-out: Ki D2; cited from earlier work

For CCN(CC)CCNC(=O)c1cc(Cl)c(N)cc1OC [metoclopramide], the Ki is listed as 28.8 nM.
